# Compound activity deposited in PubChem by Broad Institute.
# S100A4 inh HTS – S100A4-myosin IIA interaction inhibition. P26447. S100A4/TAMRA-MyoIIA peptide fluorescence polarization. inhibition, % at 10.7 µM. 360,000 tested, 0.14% active. AID 652163;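 active = mean inhibition of at least 70% across replicates, with every replicate also reaching that level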
#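 System – human S100A4 monomer protein, biochemical binding assay · Buffer or medium – Calcium-containing HEPES buffer, pH 7.2 · Timing – 5 min between mix addition and reading · Also added – TAMRA-labelled myosin IIA heavy-chain peptide probe, 5 nM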
# FGF22 binding – shifts melting point of recombinant human FGF22 | Q9HCT0 | activity (Tm shift, normalised), % at 9.99 µM | 340,000 tested, 1.5% active | recombinant FGF22 thermal shift, SYPRO orange fluorescence; percent of sucrose octasulfate shift, DMSO zero;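 active = mean Tm shift, scaled 0 neutral to 100 positive control, at about 1.3% or above, every replicate too, limit read from the data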
# UUG fidelity – modulators of yeast start codon fidelity, primary screen, whole organism, S. cerevisiae, single point, plate reader | S. cerevisiae UUG-firefly luciferase reporter, luminescence/redox ratio | activity score, % at 18.7 µM | hit rate 0.13% among 350,000;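 active = replicate mean at a twofold rise or more, about +100% in these data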;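 note: firefly luciferase made from a UUG start codon reports start codon fidelity; reporter light over untreated wells divided by growth signal over untreated wells; some hits fall short of that in this replicate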
# ERp5 inh – ERp5 (human) disulfide isomerase inhibition; ERp5 insulin aggregation, absorbance 650 nm, 90 min; inhibition, % at 9.99 µM; 350,000 tested, 0.05% active; Q15084;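 active = mean replicate inhibition above about 25%, with every replicate also reaching it, limit read from the data, passing the limit was not always enough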
# SIRT5 block – blocks human SIRT5 desuccinylation of peptide | Q9NXA8 | Purified SirT5, succinyl-peptide AMC, trypsin-coupled fluorescence | inhibition, % at 15 µM | 330,000 tested, 1.1% active; in the data active = inhibition above about 15%
# PDI turbidity – blocks human protein disulfide isomerase activity. P07237. AID 588391. PDI insulin aggregation turbidity, A650, 90 min. 350,000 tested, 0.052% active. inhibition, % at 10 µM;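 active = mean inhibition across replicates of 30% or more, whatever share of single replicates reach that level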
# * = called active by the depositor; nt = no result. A selection: hits, their analogues and other compounds. The true share with any hit is near 2.2%.
# Below each compound – S100A4 inh HTS	FGF22 binding	UUG fidelity	ERp5 inh	SIRT5 block	PDI turbidity
- COc1ccc(C(=O)N2CCCC(CCC(=O)NCc3ccc(F)c(F)c3)C2)o1 (stereo not drawn)
  -4	43*	-3	1	2	5
- Cc1ccccc1-c1ccc([C@H]2[C@H](CO)N3CCCCN(C(=O)CN4CCOCC4)C[C@@H]23)cc1
  14	0	16	1	-7	nt
- CC[C@@]12C(=O)N(c3ccc(C)cc3)C(=O)N1[C@H](c1ccc(OC)cc1)[C@@H]1C(=O)N(C(C)(C)C)C(=O)[C@@H]12
  -7	0	-5	0	20*	16
- CC=Cc1ccc2n(c1=O)C[C@@H]1[C@@H](CO)[C@H](C(=O)NCCOC)[C@H]2N1Cc1ccccc1OC (mixture of isomers)
  2	nt	nt	-1	9	nt
- O=C(N[C@@H]1CC[C@@H](CCn2cc(-c3ccc(F)cc3)nn2)O[C@@H]1CO)c1cnccn1
  -29	0	-9	1	15*	nt
- CCCNC(=O)N[C@@H]1CC[C@H](CCn2cc(C3CCCCC3)nn2)O[C@@H]1CO
  1	0	-6	-8	17*	nt
- O=C(CCN1CCCCC1)N[C@@H]1CC[C@@H](CCn2cc(-c3ccccc3)nn2)O[C@@H]1CO
  9	0	-9	1	0	nt
- O=C(CCN1CCCCC1)N[C@H]1CC[C@@H](CCn2cc(-c3ccc(F)cc3)nn2)O[C@H]1CO
  9	0	0	0	23*	nt
- O=C(CCN1CCCCC1)N[C@H]1CC[C@H](CCn2cc(-c3ccccc3)nn2)O[C@@H]1CO
  124*	-1	14	-2	3	nt
- O=C(C[C@@H]1C[C@@H]2c3cc(NS(=O)(=O)c4ccccc4)ccc3O[C@@H]2[C@H](CO)O1)NCC(F)(F)F
  4	0	nt	4	1	nt
- C[C@H]1CN([C@@H](C)CO)C(=O)Cc2cc(NC(=O)CCCN(C)C)ccc2O[C@@H]1CN(C)C(=O)NC1CCCCC1
  -8	0	-9	0	-3	nt
- O=C(C[C@@H]1CC[C@H]2[C@@H](COC[C@H](O)CN2C(=O)Cc2ccccc2)O1)NC1CCCC1
  -8	nt	nt	1	-3	nt
- O=S(=O)(N[C@@H]1CC[C@@H](CCn2cc(-c3cccnc3)nn2)O[C@H]1CO)c1ccccc1
  7	0	-4	8	16*	nt
- O=S(=O)(N[C@@H]1CC[C@H](CCn2cc(-c3cccnc3)nn2)O[C@H]1CO)c1ccccc1
  -3	0	-5	-5	8	nt
- CCCc1ccc(-c2cc(NC(=O)CSc3nnc(N)s3)n(-c3ccccc3)n2)cc1
  8	0	0	3	20*	19
- COc1ccc(N(CC(=O)NCc2ccco2)S(=O)(=O)c2ccccc2)cc1
  -4	43*	nt	-4	-5	-1
- C[C@H](CO)N1C[C@H](C)[C@H](CN(C)C(=O)Nc2ccc3c(c2)OCO3)Oc2c(NS(=O)(=O)c3cccs3)cccc2C1=O
  -2	0	10	5	2	nt
- CCC(=O)N1CC2(CCN(Cc3cncnc3)CC2)c2c([nH]c3cc(OC)ccc23)[C@@H]1CO
  10	0	nt	-4	nt	nt
- CC(=O)Nc1cccc(-c2cc(NC(C)=O)c3ncc(-c4cccc(C(C)=O)c4)n3c2)c1
  5	43*	-12	4	nt	-7
- COc1ccc(-c2cc(NC(C)=O)c3ncc(-c4cccc(C(C)=O)c4)n3c2)cc1OC
  -4	0	-3	1	1	4

# Overlap with the part before: 2 compounds, followed by the next part.
# Below each compound – S100A4 inh HTS	FGF22 binding	UUG fidelity	ERp5 inh	SIRT5 block	PDI turbidity
- CC(=O)Nc1cccc(-c2cc(NC(C)=O)c3ncc(-c4cccc(C(C)=O)c4)n3c2)c1
  5	43*	-12	4	nt	-7
- COc1ccc(-c2cc(NC(C)=O)c3ncc(-c4cccc(C(C)=O)c4)n3c2)cc1OC
  -4	0	-3	1	1	4
- CCCC(=O)N1CC2(C1)CN(C(=O)C1CC1)[C@H](CO)c1[nH]c3cc(OC)ccc3c12
  9	0	nt	5	0	nt
- CO[C@@H]1CN(C)C(=O)c2cc(NC(=O)NC3CCCCC3)ccc2OC[C@H](C)N(CCc2ccccc2)C[C@H]1C
  17	-1	nt	0	4	nt
- NNC(=O)c1cncn1-c1ccc(F)cc1
  2	44*	nt	8	-10	-1
- NC(=O)c1ccc(NC(=O)c2cncn2-c2ccccc2)cc1
  1	0	-5	2	0	25
- O=C(Cc1c(Cl)cccc1Cl)Nc1cccnc1
  1	43*	nt	-8	0	-6
- O=C(Cc1c(F)cccc1Cl)Nc1cccnc1
  -9	0	-17	0	-7	2
- c1cncc(-c2ccnc3ncnn23)c1
  -4	43*	nt	-5	-4	8

# Shown as a hit in S100A4 inh HTS, among the entries above:
molecule | S100A4 inh HTS | UUG fidelity | ERp5 inh | SIRT5 block | PDI turbidity
O=C(CCN1CCCCC1)N[C@H]1CC[C@H](CCn2cc(-c3ccccc3)nn2)O[C@@H]1CO | 124* | 14 | -2 | 3 | nt
